Measurements as given in ChEMBL document CHEMBL1134154, “1-Alkyl-3-amino-5-aryl-1H-[1,2,4]triazoles: novel synthesis via cyclization of N-acyl-S-methylisothioureas with alkylhydrazines and their potent corticotropin-releasing factor-1 (CRF(1)) receptor antagonist activities” (Bioorg Med Chem Lett, 2001).

biological target: T1, Corticotropin-releasing factor receptor 1 (Homo sapiens, UniProt P34998); experiment: Inhibition of [125I]o-CRF binding to human Corticotropin releasing factor receptor 1 expressed in CHO cells.; type: cell-based
T1 sequence (P34998 whole entry): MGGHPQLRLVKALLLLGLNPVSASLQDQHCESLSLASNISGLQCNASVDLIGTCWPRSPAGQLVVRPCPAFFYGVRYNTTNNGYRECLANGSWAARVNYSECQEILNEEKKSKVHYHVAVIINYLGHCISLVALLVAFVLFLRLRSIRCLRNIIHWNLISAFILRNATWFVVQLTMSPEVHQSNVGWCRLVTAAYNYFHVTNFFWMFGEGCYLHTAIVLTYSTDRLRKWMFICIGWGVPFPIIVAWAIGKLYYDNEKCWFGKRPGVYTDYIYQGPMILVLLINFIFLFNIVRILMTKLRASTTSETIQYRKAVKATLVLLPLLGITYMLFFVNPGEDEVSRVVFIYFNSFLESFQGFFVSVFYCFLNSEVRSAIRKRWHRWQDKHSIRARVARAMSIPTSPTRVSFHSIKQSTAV

Row | Ki [nM] | Structure (SMILES)
1 | 1500 | CCCN(c1nc(-c2c(C)cc(C)cc2C)n(CC(F)(F)F)n1)C(C1CC1)C1CC1
2 | 3200 | CCCN(c1n[nH]c(-c2c(C)cc(C)cc2C)n1)C(C1CC1)C1CC1
3 | 72 | CCCN(c1nc(-c2ccc(C)cc2C)n(C)n1)C(C1CC1)C1CC1
